# Measured values from paper PMC4848466, “Insights into the activation mechanism of class I HDAC complexes by inositol phosphates” (Nature Communications, 2016).
# Protein sequences, listed by entry. Tags and fused reporters are not part of them. Lines headed by an entry give the natural chain unless they say otherwise; changes in a name come on top. Residues count along the entry.
# UniProt O15379: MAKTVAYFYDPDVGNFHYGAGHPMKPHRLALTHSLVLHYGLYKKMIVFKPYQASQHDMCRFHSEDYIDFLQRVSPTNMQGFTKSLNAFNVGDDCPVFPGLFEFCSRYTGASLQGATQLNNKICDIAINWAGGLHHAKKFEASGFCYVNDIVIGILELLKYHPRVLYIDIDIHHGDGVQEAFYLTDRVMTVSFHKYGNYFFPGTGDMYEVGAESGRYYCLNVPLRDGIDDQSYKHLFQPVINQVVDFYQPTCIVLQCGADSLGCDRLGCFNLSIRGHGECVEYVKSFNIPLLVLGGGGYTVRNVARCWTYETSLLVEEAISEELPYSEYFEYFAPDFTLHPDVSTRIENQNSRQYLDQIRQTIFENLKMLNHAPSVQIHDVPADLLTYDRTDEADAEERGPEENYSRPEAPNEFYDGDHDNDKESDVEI
# UniProt Q9Y618, 350-480: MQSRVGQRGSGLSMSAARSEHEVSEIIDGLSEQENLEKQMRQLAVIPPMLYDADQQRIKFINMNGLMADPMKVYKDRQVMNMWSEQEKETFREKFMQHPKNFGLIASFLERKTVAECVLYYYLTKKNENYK
# Target: HDAC3:SMRT (Homo sapiens, UniProt O15379+Q9Y618)
# Assay: Fluorescence anisotropy direct binding of 2-FAM-Ins(1,3,4,5,6)P5
smiles,measurement,value
O=C(CCCCCCC(=O)Nc1ccccc1)NO [SAHA],"enhancement of the binding of 2-FAM-Ins(1,3,4,5,6)P5 to the allosteric site by inhibitor",threefold enhancement
